Consider one molecule from patent US20250228832A1, “METHODS FOR TREATING DISORDERS AMELIORATED BY MUSCARINIC RECEPTOR ACTIVATION” (KARUNA THERAPEUTICS, INC., priority 2022, published 2025).

By UniProt entry, the sequences of proteins in these tests, tags left out. Where a name states a change or a piece, a line headed by the entry shows the natural chain unless it says otherwise.
UniProt P11229: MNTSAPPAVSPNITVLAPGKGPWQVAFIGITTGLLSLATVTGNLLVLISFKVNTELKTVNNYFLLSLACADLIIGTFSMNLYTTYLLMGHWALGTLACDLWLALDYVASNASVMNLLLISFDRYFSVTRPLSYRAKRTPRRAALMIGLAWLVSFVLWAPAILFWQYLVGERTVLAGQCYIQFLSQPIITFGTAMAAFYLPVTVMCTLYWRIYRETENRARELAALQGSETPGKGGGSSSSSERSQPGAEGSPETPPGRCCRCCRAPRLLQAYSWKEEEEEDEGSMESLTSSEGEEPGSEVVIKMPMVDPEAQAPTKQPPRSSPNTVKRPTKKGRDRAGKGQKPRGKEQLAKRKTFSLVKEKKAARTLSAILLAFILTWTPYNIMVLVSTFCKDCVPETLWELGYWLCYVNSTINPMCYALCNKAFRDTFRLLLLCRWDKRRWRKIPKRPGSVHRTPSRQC
UniProt P08172, whole entry: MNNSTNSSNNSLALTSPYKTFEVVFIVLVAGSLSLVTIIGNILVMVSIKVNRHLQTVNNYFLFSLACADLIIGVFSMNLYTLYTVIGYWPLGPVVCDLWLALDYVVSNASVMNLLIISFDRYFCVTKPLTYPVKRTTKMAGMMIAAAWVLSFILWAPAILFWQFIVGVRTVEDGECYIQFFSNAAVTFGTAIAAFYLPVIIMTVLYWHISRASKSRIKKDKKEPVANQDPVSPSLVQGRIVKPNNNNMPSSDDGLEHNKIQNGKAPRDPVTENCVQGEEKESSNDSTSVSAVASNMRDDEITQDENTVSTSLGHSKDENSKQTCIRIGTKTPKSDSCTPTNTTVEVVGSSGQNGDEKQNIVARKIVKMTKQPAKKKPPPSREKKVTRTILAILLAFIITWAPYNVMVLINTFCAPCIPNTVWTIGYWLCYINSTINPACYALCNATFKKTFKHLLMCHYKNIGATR

One assay deals with T1, human M1 receptor (Homo sapiens, UniProt P11229).
T1 construct: expressed in transfected cells
Description: HTRF IP-One curve shift assay, M1. The format is cell-based. How it is done: HTRF IP-One assays were performed using frozen cell aliquots prepared from CHO-K1 cell lines stably expressing human M1, M3, or M5 receptors. Cells were frozen following typical cell freezing protocols. […] Dissociated cells were quenched in full media and collected by centrifugation at 290×g for 5 min. […] 1 mL aliquots of cells were dispensed into cryovial tubes and frozen in a controlled rate cryo-freezer container at −80° C. Cells were stored at −80° C. (or in liquid nitrogen if stored for at least six months) until the day of the assay.
On the day before the assay, frozen cells were rapidly thawed in a 37° C. water bath, brought up in 20 mL of full media, and collected via centrifugation at 290×g for 5 min. […] Next, […] of cells (10,000 cells/well) were dispensed into 384-well coming plates in triplicate. Cells were incubated overnight in a 37° C., 5% CO2 cell incubator.
Then, 2 μL of test compounds were added to the cells and incubated for 10 min at 37° C. in a 5% CO2 cell incubator. Next, 2 μL of diluted agonists serially diluted in assay buffer at 7× final assay concentration was added to assay plates. Finally, assay plates were incubated for two hours at 37° C. in a 5% CO2 cell incubator.
Six μL of IP-1 detection reagents (IP-One Gq HTRF kit, Cisbio Cat #62IPAPEJ) were dispensed to the cells. First, the plates were incubated for two hours at room temperature (IP-One detection reagents were made according to Cisbio protocol). Then, plates were read on an Envision plate reader following the Cisbio guidelines.
(§1) Raw data for all assays was transmitted directly from plate readers into the Beacon database for processing. All assay plates contained positive and negative control wells for data normalization and scaling. […] All control wells contained DMSO at a final assay concentration that matched the test compound wells.
Counts from the standard curve wells were used to generate a sigmoidal standard curve, which was used to transform the raw counts from each well on the plate (scaling control wells and compound wells) into a pmol/well IP1 value.
A general note: In TR-FRET formats the signal depends on donor and acceptor labels being close together.

The target in the next assay is human M2 receptor (Homo sapiens, UniProt P08172). Description: SPA GTP (GTPgS) binding curve shift assay, M2. The format is biochemical. How it is done:
Membranes were prepared for GTPgS binding assays from CHO-K1 cells stably expressing human M2 or human M4 receptors. Cells were grown in 5-layer cell culture flasks. Cells were washed with 50 mL of PBS and then dissociated with 0.05% trypsin. Dissociated cells were then collected by centrifugation at 650×g for 8 min at 4° C. Pellets were rewashed in PBS by centrifugation and resuspended in 30 mL of 20 mM HEPES, 10 mM EDTA, pH 7.4. After sitting on ice for 30 min, membranes were collected by centrifugation at 50000×g for 15 min at 4° C., resuspended in 30 mL of 20 mM HEPES, 0.1 mM EDTA, pH 7.4, and collected again by centrifugation. Pellets were then washed twice by centrifugation in 30 mL of 20 mM HEPES, pH 7.4, and stored at −80° C. until the day of the assay. On the day of the assay, pellets were thawed on ice and resuspended in 1 mL of 20 mM HEPES, pH 7.4, 10 mM MgCl2, and 100 mM NaCl using Dounce homogenization.
According to Promega guidelines, membrane protein concentration was determined by BCA protein assay (Promega, Madison, WI).
On the day of the assay, serial dilutions of test PAM compounds were brought up in assay buffer (20 mM HEPES, 10 mM MgCl2; see Table 4 for NaCl concentrations) at four times the final assay concentration. […] of membrane homogenates (containing […] of membrane protein) were prepared in assay buffer supplemented with GDP at 4× final assay concentration (see Table 4 for GDP concentrations) and dispensed into 96 well polypropylene, U-bottom Greiner plates. Membrane plates were incubated for 10 min at room temperature with gentle shaking. Then, 25 μL of test compounds were added to assay plates. Plates were then incubated, with shaking, for an additional 10-15 min. Then, 25 μL of diluted agonists serially diluted in assay buffer at 4× final assay concentration was added to assay plates. Plates were then incubated, with shaking, for an additional 10-15 min. Next, […] of 0.4 nM ^35S-GTP (Perkin Elmer, Waltham, MA) in assay buffer was added to assay mixtures. The binding reaction was left on the shaker for 1 h at room temperature. Membranes in assay reactions were then transferred to GF/C filter plates (UniFilter, Perkin Elmer) and washed three times using FilterMate Harvester (Perkin Elmer) with cold assay buffer containing no GDP. Filter plates were then dried at 40° C. overnight, and […] of Beta Plate Scintillation liquid was added. Plates were top and bottom sealed before being read on the TopCount scintillation counter (Perkin Elmer, Waltham, MA).
as §1
For GTPgS assays, the negative control wells were defined as 0% response. The highest response in a plate was scaled to 1, representing 100% response. Data from test compound wells was scaled to these controls and are reported as % control values. This was done to allow for subsequent GraphPad cooperativity analysis, setting the maximal response at no more than 1.

[1] abbreviates: Emraclidine concentration 41.2 nM.
[2] abbreviates: Emraclidine concentration 123 nM.
Setting [3] is: Emraclidine concentration 370 nM.
The mark [4] stands for this setting: Emraclidine concentration 1110 nM.
The mark [5] stands for this setting: Emraclidine concentration 3330 nM.

SMILES strings stand for the structures.

One may read the Emax as the greatest response seen or fitted, relative to the assay's reference. Broadly, the EC50 is the concentration at which the effect is half-maximal.

As for `CCCCCCOc1nsnc1C1=CCCN(C)C1` [xanomeline, reference compound], the Emax on human M1 receptor (Emraclidine concentration 0 nM) was determined as 74.7%; at human M1 receptor (setting [1]), 79.9%; at human M1 receptor (setting [2]) it was 83.5%; on human M1 receptor (setting [4]) it was 90%; at human M1 receptor (setting [5]) it was 87.9%; at human M1 receptor (MK-4710 concentration 0 nM), 78.2%. For the same molecule, the Emax was determined as 87.8% at human M1 receptor (MK-4710 concentration 41.2 nM), 88.1% at human M1 receptor (MK-4710 concentration 123 nM), 81.4% on human M1 receptor (MK-4710 concentration 1110 nM) and 78.4% on human M1 receptor (MK-4710 concentration 3330 nM). The Emax at […] on human M1 receptor (setting [3]) stood at 87.3%; on human M1 receptor (Emraclidine concentration […]), 75.6%; at human M1 receptor (MK-4710 concentration 370 nM) it was 85.9%; on human M1 receptor (MK-4710 concentration […]), 85.6%. Besides, the “τ (agonist pharmacology)” value at human M1 receptor (M4 PAM Emraclidine) is recorded as 0.0; at human M1 receptor (M4 PAM MK-4710), −0.1. The EC50 at human M2 receptor (Emraclidine concentration 0 nM) was 41.1 nM; on human M2 receptor (setting [1]), 42.4 nM; on human M2 receptor (setting [2]), 36.4 nM; at human M2 receptor (setting [3]), 24 nM; at human M2 receptor (setting [4]) it was 33.2 nM; at human M2 receptor (setting [5]), 35.2 nM. Further, the results for the EC50 on human M2 receptor (Emraclidine concentration […]) and at human M2 receptor (MK-4710 concentration 0 nM) were 24.6 nM and 28.5 nM, respectively.
